# Measurements published in PubChem BioAssay AID598 (SRMLSC, 2007).
# The list shows a part of the results, in another mix than the full data. Some results for these compounds are left out of this collection, so the calls shown say nothing about other tests. Activity calls are given as the source filed them.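 Rule for the calls: active = viability at or below 40%; inactive = viability above 40%.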
# Assay: proliferation blockers of H69AR lung cancer cells, primary screen, cell-based, human, 86K library (AID 598);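 note: multidrug resistant small cell line overexpressing MRP-1 efflux transporter; 100% = mean luminescence of untreated control wells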
# Settings: H69AR lung tumor viability, ATP luminescence, 72 h; at 10 µM; hits give low values
row,Structure (SMILES),viability
1,CN(C)c1cccc(C(=O)NCC2(N(C)C)CCCCC2)c1,inactive: 68%
2,O=C(OC1CN2CCC1CC2)C(CO)(c1ccccc1)c1ccccc1 (configuration not stated),inactive: 87.4%
